Experimental data: ChEMBL document CHEMBL5728759, “Dual MAGL and FAAH inhibitors” (2021)

By UniProt entry, the sequences of proteins in these tests, tags left out.
UniProt Q99685, whole entry, looked up: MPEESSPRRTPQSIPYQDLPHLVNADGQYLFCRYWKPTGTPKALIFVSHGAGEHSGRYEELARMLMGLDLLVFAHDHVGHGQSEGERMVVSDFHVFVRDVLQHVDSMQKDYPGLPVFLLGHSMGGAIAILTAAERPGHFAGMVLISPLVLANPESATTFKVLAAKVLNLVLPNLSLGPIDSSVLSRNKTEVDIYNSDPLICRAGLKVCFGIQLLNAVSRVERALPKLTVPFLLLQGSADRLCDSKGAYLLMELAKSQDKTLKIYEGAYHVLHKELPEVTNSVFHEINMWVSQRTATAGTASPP

Target: Monoglyceride lipase (Homo sapiens, UniProt Q99685)
Assay: In Vitro Competitive Activity-Based Protein Assay: Proteomes (mouse brain membrane fraction or cell lysates for mouse assays; human prefrontal cortex or cell membrane fractions for human assays) (50 μL, 1.0 mg/mL total protein concentration) were preincubated with varying concentrations of inhibitors at 37° C. After 30 min, FP—Rh or HT-01 (1.0 μL, 50 μM in DMSO) was added and the mixture was incub

C[C@@H]1CN(Cc2cccc(C(F)(F)F)c2)CCN1C(=O)Oc1cncc(C(N)=O)c1
IC50: < 50 µM
